# Laboratory results as given in PubChem BioAssay AID504333 (National Center for Advancing Translational Sciences (NCATS), 2011).
# The chains behind the UniProt entries cited, without tags or fusion partners. Where a name states a change or a piece, a line headed by the entry shows the natural chain unless it says otherwise.
# UniProt Q9UIF8: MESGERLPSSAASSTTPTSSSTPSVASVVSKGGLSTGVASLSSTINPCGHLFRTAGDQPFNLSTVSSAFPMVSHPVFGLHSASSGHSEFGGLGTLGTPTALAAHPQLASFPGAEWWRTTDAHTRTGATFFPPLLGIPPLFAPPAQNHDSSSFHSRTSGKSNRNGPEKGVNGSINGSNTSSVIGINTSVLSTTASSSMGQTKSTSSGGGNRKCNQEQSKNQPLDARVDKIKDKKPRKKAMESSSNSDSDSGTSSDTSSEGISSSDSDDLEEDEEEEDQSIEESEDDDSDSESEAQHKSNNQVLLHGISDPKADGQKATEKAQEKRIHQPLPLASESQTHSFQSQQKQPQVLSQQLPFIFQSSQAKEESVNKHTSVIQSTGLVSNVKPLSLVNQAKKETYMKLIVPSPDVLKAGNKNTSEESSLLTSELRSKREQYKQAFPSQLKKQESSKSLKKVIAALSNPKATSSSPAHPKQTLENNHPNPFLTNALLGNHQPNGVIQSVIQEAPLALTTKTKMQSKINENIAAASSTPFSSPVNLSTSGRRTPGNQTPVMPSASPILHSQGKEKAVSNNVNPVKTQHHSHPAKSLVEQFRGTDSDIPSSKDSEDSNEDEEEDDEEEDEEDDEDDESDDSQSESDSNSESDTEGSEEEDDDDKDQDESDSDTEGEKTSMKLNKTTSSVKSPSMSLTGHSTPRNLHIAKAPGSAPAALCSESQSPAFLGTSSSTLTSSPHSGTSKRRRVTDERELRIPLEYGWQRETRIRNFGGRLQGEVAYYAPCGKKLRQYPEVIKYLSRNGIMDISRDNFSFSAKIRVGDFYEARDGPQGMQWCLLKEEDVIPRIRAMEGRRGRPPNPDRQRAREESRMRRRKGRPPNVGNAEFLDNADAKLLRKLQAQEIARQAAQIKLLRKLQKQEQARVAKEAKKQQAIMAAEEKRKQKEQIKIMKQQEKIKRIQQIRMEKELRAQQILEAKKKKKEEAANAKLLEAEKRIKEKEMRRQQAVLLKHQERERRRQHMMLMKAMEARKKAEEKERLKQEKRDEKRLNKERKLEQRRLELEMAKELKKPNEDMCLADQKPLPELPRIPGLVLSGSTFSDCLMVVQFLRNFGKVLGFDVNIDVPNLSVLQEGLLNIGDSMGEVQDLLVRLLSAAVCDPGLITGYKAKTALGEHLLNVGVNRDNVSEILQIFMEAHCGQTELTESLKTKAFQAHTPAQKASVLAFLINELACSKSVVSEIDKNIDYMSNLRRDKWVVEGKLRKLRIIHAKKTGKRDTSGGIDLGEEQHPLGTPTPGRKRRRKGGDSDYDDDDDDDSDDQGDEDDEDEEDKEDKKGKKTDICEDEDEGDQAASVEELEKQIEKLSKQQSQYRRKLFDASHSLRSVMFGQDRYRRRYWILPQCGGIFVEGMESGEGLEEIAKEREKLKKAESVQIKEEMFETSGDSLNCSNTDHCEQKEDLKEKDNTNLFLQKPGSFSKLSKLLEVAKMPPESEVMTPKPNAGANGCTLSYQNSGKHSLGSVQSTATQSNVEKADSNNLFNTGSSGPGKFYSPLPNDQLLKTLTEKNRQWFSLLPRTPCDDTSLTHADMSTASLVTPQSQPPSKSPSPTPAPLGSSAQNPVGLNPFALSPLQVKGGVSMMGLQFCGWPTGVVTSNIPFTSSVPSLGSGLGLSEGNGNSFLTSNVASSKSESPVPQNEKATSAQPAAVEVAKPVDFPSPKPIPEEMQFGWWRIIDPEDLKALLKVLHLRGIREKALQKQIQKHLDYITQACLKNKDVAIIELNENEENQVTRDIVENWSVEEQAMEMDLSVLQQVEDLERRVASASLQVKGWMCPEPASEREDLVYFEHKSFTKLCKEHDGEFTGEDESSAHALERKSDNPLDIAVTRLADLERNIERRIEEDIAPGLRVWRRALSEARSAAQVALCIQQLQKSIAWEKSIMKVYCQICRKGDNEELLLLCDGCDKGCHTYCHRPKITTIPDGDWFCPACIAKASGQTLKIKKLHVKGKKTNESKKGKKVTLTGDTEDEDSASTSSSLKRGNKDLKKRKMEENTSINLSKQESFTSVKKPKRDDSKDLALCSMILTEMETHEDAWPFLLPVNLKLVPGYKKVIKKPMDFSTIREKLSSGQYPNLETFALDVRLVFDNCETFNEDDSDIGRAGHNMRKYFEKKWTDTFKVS
# Shown are results outside the selection of hits, which stands elsewhere. Results filed as inconclusive are left out. Calls of active or inactive are those of the source. Calls come from the whole dose curve; as a rule, active = well fitted inhibition curve with a large enough effect; inconclusive = small, poorly fitted or top-dose-only effect; inactive = no such curve, though single readings can be large or run the other way.
# Molecular target: Bromodomain adjacent to zinc finger domain protein 2B (Homo sapiens) (UniProt Q9UIF8)
# Assay: qHTS Assay for Inhibitors of BAZ2B; note: nearly all actives have a fitted effect of over 60% in size
# Settings: AlphaScreen BAZ2B-H3K14Ac peptide displacement; at 114 µM (top of the series)
# Excerpt: BAZ2B (bromodomain adjacent to zinc finger domain, 2B) belongs to a family of ubiquitously expressed bromodomain containing proteins, which biological function has not yet been elucidated. […] The interaction of BAZ2B with ISWI mediated by the BAZ1 motif has recently been described. […] The protocol is based on the AlphaScreen (PerkinElmer) displacement assay developed by NCGC [5], but uses the peptide ligand Biot-H3K14Ac, a high affinity binding partner for BAZ2B, in an AlphaScreen format. Although AlphaScreen has significant advantages with its utility in a variety of epigenetic target assays, the primary screening data provided in this deposition should be used with caution due to the prevalence of screening artifacts. The top compound concentration tested was 110uM in this assay, which increases number of actives and potential artifacts. […] Yasgar, et al. Compound Management for Quantitative High-Throughput Screening. […] Inglese, et al. Quantitative high-throughput screening: a titration-based approach that efficiently identifies biological activities in large chemical libraries. […]
# To each well of a 1,536w plate, 2ul of BAZ2B protein (final 50nM) and 1ul biotinylated histone peptide acetylated at Lys14 [b-H3(5-23)K14Ac] […] Plates were read on an EnVision multilabel plate reader using the 1,536 plate HTS AlphaScreen aperture (excitation time 80 ms, measurement time 240 ms).
# % is set by controls: 0 for no effect and ±100 for the full control effect.
row,SMILES,"activity change, negative = inhibition"
1,CC(C)(C(=O)O)c1ccc(C(O)CCCN2CCC(C(O)(c3ccccc3)c3ccccc3)CC2)cc1 (stereo unspecified),inactive: 4.55%
